# Binding of CDR-mutated scFvs to a peptide of the spike HR2 region

Antigen: PDVDLGDISGINAS, a 14-residue peptide of the SARS-CoV-2 spike HR2 region.

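Phage display of a naive human antibody library on the peptide gave the parent. This is the validation round: designs drawn from the data on random variants, tested in the same kind of assay. Their group label is 14L_Ctrl (Ctrl: baseline library sampled from a position-specific scoring matrix, with some repeated check sequences). The scFvs were displayed on barcoded MATa yeast, the peptide on MATalpha yeast. Binding brings cells together so that they mate, and sequencing counts the barcode pairs among the diploids. The ratio of observed to expected reads was calibrated, replicate by replicate, on BCL2-family standards whose Kd was known from biolayer interferometry. There are six technical replicates.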

The variants keep the heavy chain, the linker and the frameworks of Ab-14 (scFv order VH, three GGGGS repeats, VL).
VH: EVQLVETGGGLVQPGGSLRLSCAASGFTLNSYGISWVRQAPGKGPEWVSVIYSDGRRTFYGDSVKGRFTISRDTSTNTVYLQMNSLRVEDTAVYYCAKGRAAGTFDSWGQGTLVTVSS
VL: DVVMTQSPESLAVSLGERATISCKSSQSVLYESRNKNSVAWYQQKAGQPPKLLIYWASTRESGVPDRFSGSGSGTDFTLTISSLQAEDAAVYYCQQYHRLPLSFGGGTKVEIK

The whole VL of each variant is written out. Numbers give log10(Kd / nM), so 0 is 1 nM and 3 is 1 µM. Smaller is tighter. A pair that was not seen in that replicate is written "ND"; this usually means weak binding, but a binder can also be missed.

VL	replicates, log10 nM	signal with controls
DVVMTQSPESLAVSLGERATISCKSSQSVLYELGNKNSVAWYQQKAGQPPKLLIYEASTRESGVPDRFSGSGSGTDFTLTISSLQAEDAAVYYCQQYHRLPLSFGGGTKVEIK	1.24 / 0.83 / 0.96 / 1.01 / 1.40 / 0.36	0 of 18
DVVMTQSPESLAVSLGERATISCKSSQSVLYESRHKNSVAWYQQKAGQPPKLLIYWASTRESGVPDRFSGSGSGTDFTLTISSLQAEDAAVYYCQQYFRLELSFGGGTKVEIK	2.52 / 3.13 / 3.56 / 2.36 / 2.90 / ND	0 of 18
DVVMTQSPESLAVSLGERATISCKQLQSGLYESLNKNSVAWYQQKAGQPPKLLIYWASTRESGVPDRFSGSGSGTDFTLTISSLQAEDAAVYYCQQYHRLLLSFGGGTKVEIK	ND / ND / ND / ND / ND / ND	0 of 18
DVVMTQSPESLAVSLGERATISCKSSQSVLYEKINKNSVAWYQQKAGQPPKLLIYHASTRESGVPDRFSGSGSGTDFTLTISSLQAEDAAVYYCQQYHRLPLSFGGGTKVEIK	1.56 / 2.59 / 1.15 / 2.31 / 1.79 / ND	0 of 18
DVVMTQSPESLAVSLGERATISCKSSQSVLQESRNKNSVAWYQQKAGQPPKLLIYWASTRESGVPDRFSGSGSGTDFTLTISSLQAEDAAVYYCQQYHVLPLQFGGGTKVEIK	ND / ND / ND / ND / 1.53 / ND	2 of 18 (3.20)
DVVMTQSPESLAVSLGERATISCKSGQLVLYESRNKNSVAWYQQKAGQPPKLLIYWASTRESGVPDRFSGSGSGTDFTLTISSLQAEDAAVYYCQQYHILPLSFGGGTKVEIK	ND / ND / ND / ND / 1.77 / ND	0 of 18
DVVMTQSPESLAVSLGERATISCKWSQSVLYESRNKNSVAWYQQKAGQPPKLLIYWASTRESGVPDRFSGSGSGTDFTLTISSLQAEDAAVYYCQQTHRLPLSFGGGTKVEIK	ND / ND / ND / ND / ND / ND	0 of 18
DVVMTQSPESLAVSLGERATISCKMSQMVLYESRYDNSVAWYQQKAGQPPKLLIYWASTHELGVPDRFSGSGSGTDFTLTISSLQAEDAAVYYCQQYHRLPLSFGGGTKVEIK	ND / ND / ND / ND / ND / ND	0 of 18
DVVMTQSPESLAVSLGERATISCKFSQSDLYNSRNKNSVAWYQQKAGQPPKLLIYWASTRESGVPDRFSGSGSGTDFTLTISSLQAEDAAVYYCQQYHREPLSFGGGTKVEIK	1.52 / ND / 3.28 / 2.66 / 1.77 / 3.46	1 of 18 (1.86)
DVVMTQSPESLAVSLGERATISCKSSQSALYESRNKNSVAWYQQKAGQPPKLLIYWASTRESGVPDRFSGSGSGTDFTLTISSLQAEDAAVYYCQQYHRLPLNFGGGTKVEIK	ND / ND / ND / ND / 2.12 / ND	0 of 18
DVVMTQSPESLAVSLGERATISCRSSQSVLYESTNKNSVAWYQQKAGQPPKLLIYMASTRESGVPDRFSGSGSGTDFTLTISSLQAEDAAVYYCQQYHRLPLSFGGGTKVEIK	0.94 / 0.84 / 1.13 / 0.55 / 0.66 / 1.21	0 of 18
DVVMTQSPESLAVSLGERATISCKSSNSVLYESRNSNNVAWYQQKAGQPPKLLIYWASTRASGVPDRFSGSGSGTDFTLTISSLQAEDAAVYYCQQYDCLPLVFGGGTKVEIK	ND / ND / ND / ND / 3.49 / 1.92	0 of 18
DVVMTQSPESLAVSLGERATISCKSSQSVLPESRNKSSVAWYQQKAGQPPKLLIYWASTRESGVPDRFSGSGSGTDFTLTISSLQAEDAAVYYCQQYHRLPLSFGGGTKVEIK	ND / 2.21 / 2.74 / ND / ND / 3.58	3 of 18 (2.52)
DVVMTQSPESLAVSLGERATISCKSLQSSLYESENKNSVAWYQQKAGQPPKLLIYWASTRESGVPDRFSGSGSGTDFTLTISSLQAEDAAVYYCQQYHRLPLSFGGGTKVEIK	1.34 / 0.79 / 1.69 / 1.23 / 0.85 / 1.21	0 of 18
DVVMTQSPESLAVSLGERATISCKSSQSVLYERRNKNSVAWYQQKAGQPPKLLIYWASTRESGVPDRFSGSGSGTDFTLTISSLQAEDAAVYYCQQYHRLPLSFGGGTKVEIK	1.95 / ND / 1.98 / 1.47 / 1.16 / 2.48	0 of 18
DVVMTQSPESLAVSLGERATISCMDSQSVLYESRNKNSVAWYQQKAGQPPKLLIYNASTRESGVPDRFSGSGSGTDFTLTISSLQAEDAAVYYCQQYHRLPLSFGGGTKVEIK	0.17 / -0.13 / 0.17 / -0.24 / -0.23 / 0.13	0 of 18
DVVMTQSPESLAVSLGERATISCKISQSVLYESRVKNSVAWYQQKAGQPPKLLIYWASTRESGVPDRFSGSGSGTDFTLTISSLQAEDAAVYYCQQYHRLPLSFGGGTKVEIK	0.50 / 0.34 / 0.52 / 0.33 / 0.93 / 0.65	1 of 18 (0.97)

Empty control strains, which show no peptide, gave a signal in 4% of pairings with all light chain designs; the median was 2.64 and 95% of these signals were weaker than 1.59. No background was subtracted. The control count says in how many pairings with the empty strains this scFv gave a signal, with their mean in brackets. The authors averaged sequences with at least three values out of six and counted those with two or fewer as poor binders. Values of this round are not directly comparable with the first-round values of the same sequences. The parent sequence was in this pool as ten entries: three were never detected, three once, and four in most replicates, with averages from 0.34 to 2.37.

The measurements come from Li et al. 2023 (doi:10.1038/s41467-023-39022-2) through the FLAb antibody collection.